Regarding Hydrogen, in the data set on HEp-2 cells, the “toxicity to HEp-2 cells” value is “not confirmed to have any marked toxicity”. Moreover, the “cytotoxicity to the MDCK cells” value in the data set on MDCK cells is listed as “not found to have any cytotoxicity”.
